Test results taken from publication PMC12749252 (Nature Communications, 2025).

Sequences of proteins named here, by UniProt entry; tags and fusion partners are left off. A change or cut given only in a name is not applied to a line headed by its entry.
UniProt Q9P2K8: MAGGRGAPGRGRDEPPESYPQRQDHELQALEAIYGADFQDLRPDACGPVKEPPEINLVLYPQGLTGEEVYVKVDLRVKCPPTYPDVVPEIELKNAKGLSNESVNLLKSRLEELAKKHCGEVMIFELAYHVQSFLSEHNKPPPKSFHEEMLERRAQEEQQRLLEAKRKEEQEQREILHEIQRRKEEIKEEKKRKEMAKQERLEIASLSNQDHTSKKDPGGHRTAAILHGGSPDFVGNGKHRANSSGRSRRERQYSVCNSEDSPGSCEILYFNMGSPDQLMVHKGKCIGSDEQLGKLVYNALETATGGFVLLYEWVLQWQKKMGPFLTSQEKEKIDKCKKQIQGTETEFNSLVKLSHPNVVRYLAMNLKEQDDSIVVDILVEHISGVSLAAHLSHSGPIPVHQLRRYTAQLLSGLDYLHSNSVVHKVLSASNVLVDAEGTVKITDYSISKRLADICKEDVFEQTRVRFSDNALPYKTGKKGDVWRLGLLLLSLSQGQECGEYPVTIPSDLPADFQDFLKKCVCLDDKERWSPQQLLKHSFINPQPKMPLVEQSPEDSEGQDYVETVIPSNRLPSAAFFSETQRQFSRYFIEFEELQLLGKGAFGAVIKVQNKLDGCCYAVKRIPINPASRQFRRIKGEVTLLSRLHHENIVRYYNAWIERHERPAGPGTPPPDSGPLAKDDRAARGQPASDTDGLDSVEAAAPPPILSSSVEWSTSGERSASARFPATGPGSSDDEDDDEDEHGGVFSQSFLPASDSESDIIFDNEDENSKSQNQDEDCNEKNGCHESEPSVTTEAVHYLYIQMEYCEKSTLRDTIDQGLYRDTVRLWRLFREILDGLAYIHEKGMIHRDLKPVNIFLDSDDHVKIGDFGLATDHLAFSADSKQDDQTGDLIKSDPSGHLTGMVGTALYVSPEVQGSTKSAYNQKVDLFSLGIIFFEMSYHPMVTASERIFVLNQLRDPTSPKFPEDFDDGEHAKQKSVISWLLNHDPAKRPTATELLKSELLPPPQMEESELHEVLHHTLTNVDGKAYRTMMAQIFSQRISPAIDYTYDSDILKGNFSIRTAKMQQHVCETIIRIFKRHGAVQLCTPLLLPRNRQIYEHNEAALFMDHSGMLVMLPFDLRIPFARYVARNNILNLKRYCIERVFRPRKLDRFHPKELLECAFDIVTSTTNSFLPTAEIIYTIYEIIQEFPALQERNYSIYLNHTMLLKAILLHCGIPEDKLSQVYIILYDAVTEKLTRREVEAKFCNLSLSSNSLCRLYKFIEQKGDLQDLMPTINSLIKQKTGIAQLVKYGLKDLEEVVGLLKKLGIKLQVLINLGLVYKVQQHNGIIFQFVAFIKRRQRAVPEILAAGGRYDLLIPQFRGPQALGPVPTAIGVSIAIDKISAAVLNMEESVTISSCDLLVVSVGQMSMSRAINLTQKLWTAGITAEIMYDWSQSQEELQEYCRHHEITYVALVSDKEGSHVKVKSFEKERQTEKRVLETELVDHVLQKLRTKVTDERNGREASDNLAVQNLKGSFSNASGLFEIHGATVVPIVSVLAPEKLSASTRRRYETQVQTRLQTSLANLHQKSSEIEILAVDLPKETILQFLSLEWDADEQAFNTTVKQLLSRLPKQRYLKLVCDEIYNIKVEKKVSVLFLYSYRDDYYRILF

Target: GCN2 (Homo sapiens, UniProt Q9P2K8)
Experiment: Eurofins KinaseProfiler in vitro
Type: biochemical

IC50: 507 nM
SMILES: CCOc1cc2ncc(C#N)c(Nc3ccc(OCc4ccccn4)c(Cl)c3)c2cc1NC(=O)/C=C/CN(C)C [neratinib]
